{"source": "patent US20020131994A1", "about": "“Non-irritating formulation for the transdermal delivery of substances” (priority 2001, published 2002)", "origin": "cited, not measured here"}
{"substance": "insulin", "values": [{"measurement": "Standard clearance time for insulin I.V.", "result": "< 20", "unit": "min"}]}
